For test [1], the system named is KB (epidermoid carcinoma of the nasopharynx). The experiment in a line: Antiproliferative SRB assay, KB. Format: cell-based, human. (The SRB assay estimates cell density from bound dye.)
The test system of test [2] is KB-vin (vincristine-resistant KB subline). Briefly: Antiproliferative SRB assay, KB-vin. It counts as cell-based, human.
In test [3] the test system is HTCL panel: A549, KB, KB-vin, DU145. The experiment in a line: cells. The following applies: Homo sapiens, read-out: GI50 across HTCL panel.

The values that follow come from PMC4920374 (Bioorganic & medicinal chemistry, 2016).

As a reminder, the GI50 is the concentration giving 50% growth inhibition.

For the compound `COc1ccc(Nc2nc(NC3CCCC3)c3ccccc3n2)cc1` [4a, 4-(N-Cyclopentyl)amino-2-(4-methoxyphenyl)aminoquinazoline], in test [1], the “GI50 KB” value was 11.1 µM. In addition, in test [2], the “GI50 KB-vin” value was found to be 12.6 µM.
Regarding `COc1ccc(Nc2nc(NCCCO)c3ccccc3n2)cc1` [4b, 4-(3-Hydroxypropyl)amino-2-(4-methoxyphenyl)aminoquinazoline], in test [1], the “GI50 KB” value was 20.3 µM. Further, the “GI50 KB-vin” value in test [2] was 17.1 µM. Also, the GI50 in test [3] was under 20 µM.
As for `CCCNc1nc(Nc2ccc(OC)cc2)nc2ccccc12` [4c, 2-(4-Methoxyphenyl)amino-4-propylaminoquinazoline], the “GI50 KB” value in test [1] is reported as 5.33 µM. In addition, the “GI50 KB-vin” value in test [2] was found to be 5.09 µM.
Taken in the same sequence, the figures for `CNc1nc(Nc2ccc(OC)cc2)nc2ccccc12` [4d, 2-(4-Methoxyphenyl)amino-4-methylaminoquinazoline] were 14.8 µM and 17.5 µM.
Taken in the same sequence, the figures for `COc1ccc(Nc2nc(N3CCOCC3)c3ccccc3n2)cc1` [4e, 2-(4-Methoxyphenyl)amino-4-(N-morpholino)quinazoline] were 21.0 µM and 15.3 µM.
Taken in the same sequence, the figures for `COc1ccc(Nc2nc(NC3CC3)c3ccccc3n2)cc1` [4f, 4-(N-cyclopropyl)amino-2-(4-methoxyphenyl)aminoquinazoline] were 13.3 µM and 13.4 µM.
For `COc1ccc(N(C)c2nc(NC3CCCC3)c3ccccc3n2)cc1` [5a, 4-(N-Cyclopentyl)amino-2-(N-(4-methoxyphenyl)-N-methyl)aminoquinazoline], in test [1], the “GI50 KB” value was found to be 11.7 µM.
With `COc1ccc(N(C)c2nc(NCCCO)c3ccccc3n2)cc1` [5b], in test [1], the “GI50 KB” value was determined as 24.8 µM. Further, the “GI50 KB-vin” value in test [2] was determined as 30.8 µM.
With `CCCNc1nc(N(C)c2ccc(OC)cc2)nc2ccccc12` [5c, 2-(N-(4-Methoxyphenyl)-N-methyl)amino-4-propylaminoquinazoline], in test [1], the “GI50 KB” value worked out at 13.7 µM.
Consider `CNc1nc(N(C)c2ccc(OC)cc2)nc2ccccc12` [5d, 2-(N-(4-Methoxyphenyl)-N-methyl)amino-4-methylaminoquinazoline], for which the “GI50 KB” value in test [1] is 18.7 µM. In test [2], the “GI50 KB-vin” value is listed as 22.9 µM.
Taken in the same sequence, the figures for `Nc1ccc(Nc2nc(NC3CCCC3)c3ccccc3n2)cc1` [6b, 2-(4-Aminophenyl)amino-4-(N-cyclopentyl)aminoquinazoline] were 17.4 µM and 21.7 µM.
For the compound `Fc1ccc(Nc2nc(NC3CCCC3)c3ccccc3n2)cc1` [6c, 4-(N-Cyclopentyl)amino-2-(4-fluorophenyl)aminoquinazoline], the “GI50 KB” value in test [1] stood at 13.8 µM. In addition, the “GI50 KB-vin” value in test [2] turned out to be 12.3 µM.
Taken in the same sequence, the figures for `Oc1ccc(Nc2nc(NC3CCCC3)c3ccccc3n2)cc1` [6d, 4-(N-Cyclopentyl)amino-2-(4-hydroxyphenyl)aminoquinazoline] were 12.1 µM and 13.6 µM.
Turning to `O=C(O)c1ccc(Nc2nc(NC3CCCC3)c3ccccc3n2)cc1` [6e, 2-(4-Carboxyphenyl)amino-4-(N-cyclopentyl)aminoquinazoline], the “GI50 KB” value in test [1] is listed as 25.2 µM. The “GI50 KB-vin” value in test [2] is listed as 19.8 µM.
Taken in the same sequence, the figures for `N#Cc1ccc(Nc2nc(NCCCO)c3ccccc3n2)cc1` [7a, 2-(4-Cyanophenyl)amino-4-((3-hydroxypropyl)amino)quinazoline] were 23.7 µM and 4.31 µM.
Regarding `CCCNc1nc(Nc2ccc(F)cc2)nc2ccccc12` [7d, 4-Propylamino-2-(4-fluorophenyl)aminoquinazoline], the “GI50 KB” value in test [1] is reported as 2.9 µM. Further, the “GI50 KB-vin” value in test [2] came out at 2.5 µM. The GI50 in test [3] fell in the range of 2.5 to 4.3 µM.
